Laboratory results: ChEMBL document CHEMBL4680116, “Development of benzimidazole-based derivatives as antimicrobial agents and their synergistic effect with colistin against gram-negative bacteria” (Eur J Med Chem, 2020)

Test system: Escherichia coli
Conditions: JW55031, time 18-20 hrs

With GENTAMICIN the MIC was 0.5 µg/mL.
